Screening data as filed in PubChem.
TRPM1 prom inh = MITF TRPM1 promoter inhibition in SK-MEL-5 cells. 330,000 compounds, 0.83% hits. SK-MEL-5 TRPM1 promoter luciferase, 24 h. inhibition, % at 12.5 µM;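 active = mean inhibition across replicates of 60% or more, whatever share of single replicates reaches that level; inconclusive = some that reach 60%, reason not given; inactive = mean inhibition across replicates below 60%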
UUG fidelity = modulators of start codon recognition fidelity in yeast; AID 602363; activity score, % at 18.7 µM; S. cerevisiae UUG-firefly luciferase reporter, luminescence/redox ratio; 0.13% of 350,000 active;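 active = replicate mean at a twofold rise or more, about +100% in these data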;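 note: firefly luciferase made from a UUG start codon reports start codon fidelity; reporter light over untreated wells divided by growth signal over untreated wells; some hits fall short of that in this replicate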
PGC1a acetyl inh = PGC1a acetylation modulation, inhibitor mode. U2OS PGC1a acetylation, AlphaScreen anti-acetyl-lysine; with virally co-expressed GCN5 acetyltransferase. 350,000 compounds, 0.17% hits. AID 651687. inhibition, % at 15.6 µM;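 active = every replicate shows inhibition of at least 40%; inconclusive = mean inhibition at least 40% but some replicate below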;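 also: 0% = neutral control wells and 100% = positive control wells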
Wnt bcat act = activators of Wnt/beta-catenin signaling | Wnt/beta-catenin reporter cell assay, activator, plate reader | activation, % at 9.35 µM | 300,000 compounds, 1.2% hits | AID 743398; in the data active = activation above about 30%, passing the limit was not always enough; inconclusive = no clear call, values can overlap the other calls;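 also: 0% = neutral control wells and 100% = positive control wells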
MITF act = activators of MITF-driven TRPM1 promoter activity in SK-MEL-5 cells; SK-MEL-5 TRPM1-promoter luciferase, 24 h; % of positive control, neutral wells = 0; activation, % at 12.5 µM; 300,000 compounds, 0.75% hits;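 active = mean activation of at least 80% with every replicate also reaching 80%; inconclusive = mean reaches 80% but some replicate falls short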;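 also: 0% = neutral control wells and 100% = parthenolide positive control wells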
miR122 inh = inhibitors of miR-122 in Huh7 cells | activation (reporter increase), % at 12.5 µM | AID 602342 | 340,000 compounds, 0.3% hits | Huh7 miR-122 Renilla luciferase sensor, 48 h; neutral wells = 0, positive control = 100;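 active = mean replicate activation score at least 90 and every replicate individually at or above 90; inconclusive = only one of the two criteria met; inactive = neither criterion met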;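 also: higher luciferase means less miR-122 activity so hits act as miR-122 inhibitors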
* marks the source's active call; other numbers are inactive results; ? = inconclusive; . = not tested or not shown; [ ] = another dose, or the depositor's remark. Only some compounds are listed: those with a hit (about 2.1% of all), similar ones and a draw of the others.

SMILES | TRPM1 prom inh | UUG fidelity | PGC1a acetyl inh | Wnt bcat act | MITF act | miR122 inh
C[C@@H]1CN([C@@H](C)CO)C(=O)c2cc(C#Cc3cccnc3)cnc2O[C@H]1CN(C)C(=O)CC1CC1 | . | 28 | -1 | . | . | 0[16.7 µM]
COc1ccccc1-c1ccc2c(c1)O[C@H](CN(C)C(=O)c1cccnc1)[C@H](C)CN([C@H](C)CO)S2(=O)=O | . | . | 8 | . | . | 42[16.7 µM]
CCCc1cc(C(=O)Nc2cccc(Cl)c2C)no1 | -51 | -16 | . | 14 | 50 | 2
CCCc1cc(C(=O)Nc2cccc(Cl)c2)no1 | . | -24 | . | 47* | . | .
CCCc1cc(C(=O)Nc2cccc(C(C)=O)c2)no1 | -49 | -17 | 2 | 40* | 52 | 1
C[C@H](CO)N1C[C@H](C)[C@H](CN(C)Cc2ccncc2)Oc2c(NS(C)(=O)=O)cccc2C1=O | . | -14 | 4 | . | . | 1[16.7 µM]
Cc1cc(C)c(CN2CCN(CCCn3cnc(C(=O)Nc4ccc(C)c(C)c4)n3)CC2)c(C)c1 | 84* | -17 | -34 | -4 | -83 | -22
C[C@@H]1CN([C@@H](C)CO)C(=O)c2cc(-c3ccccc3F)cnc2O[C@H]1CN(C)C(=O)CN(C)C | . | -20 | -1 | . | . | 1[16.7 µM]
CCOc1ccccc1-c1nc(-c2ccc(C)nc2OC)no1 | -92 | -11 | . | 51* | . | 130*
Cc1ccc(-c2nc(-c3ccncc3)no2)cc1 | -23 | -47 | . | 33* | 23 | -3
COc1nc(C)ccc1-c1noc(-c2ccncc2)n1 | -88 | -9 | 0 | 0 | 97* | -2
COc1nc(-c2ccccc2)ccc1-c1noc(-c2ccccc2)n1 | -57 | -12 | 4 | -5 | 58 | 5
Cc1cc(C)cc(-c2nc(-c3ccncc3)no2)c1 | -75 | -19 | 2 | 7 | 67 | -2
CO[C@H]1CN(C)C(=O)c2cc(NC(C)=O)ccc2OC[C@@H](C)N(C(=O)CN2CCOCC2)C[C@H]1C | . | -14 | 15 | . | . | -22[16.7 µM]
O=C(C[C@H]1CC[C@@H]2[C@H](COC[C@H](O)CN2CCC(F)(F)F)O1)NCC1CCCCC1 | . | . | 14 | . | . | 12[16.7 µM]
C[C@@H]1CCCCO[C@H](CN(C)C(=O)C2CCCCC2)[C@@H](C)CN([C@H](C)CO)C(=O)c2cc(NS(C)(=O)=O)ccc2O1 | . | 9 | 2 | . | . | 1[16.7 µM]
O=C(Nc1nc(-c2ccc(Cl)cc2Cl)cs1)C1CCCO1 (stereo not given) | -10 | -1 | . | 1 | 12 | -13
CC(=O)Nc1nc(-c2ccc3c(c2)OCO3)cs1 | -60 | . | 3 | 53* | 65 | -5
Cc1ccc(C(=O)Nc2nc(-c3ccc4c(c3)OCCO4)cs2)o1 | . | -26 | -15 | -1 | . | -3
COc1cccc(-c2csc(NC(=O)C3CC3)n2)c1 | -107 | -13 | -2 | ? | 120* | -3
O=C(Nc1nc(-c2ccc3c(c2)OCCO3)cs1)C1CCCC1 | -135 | . | -13 | 44* | 144* | .
O=C(Nc1nc(-c2ccc3c(c2)OCO3)cs1)C1COc2ccccc2O1 (stereo not given) | . | -18 | . | -3 | . | -3
O=C(Nc1nc(-c2ccc(Cl)cc2)cs1)C1CCCO1 (stereo not given) | -43 | 8 | -2 | 65* | 51 | -5
Cc1ccc(S(=O)(=O)Nc2ccc3c(c2)C(=O)N([C@H](C)CO)C[C@H](C)[C@H](CN(C)S(=O)(=O)c2ccccc2)OCCCC[C@H](C)O3)cc1 | . | -16 | -1 | . | . | -11[16.7 µM]
Cc1ccc(S(=O)(=O)N(C)C[C@H]2OCCCC[C@@H](C)Oc3ccc(NS(=O)(=O)c4cn(C)cn4)cc3C(=O)N([C@@H](C)CO)C[C@@H]2C)cc1 | . | -5 | 9 | . | . | 8[16.7 µM]
(more compounds)
SMILES | TRPM1 prom inh | UUG fidelity | PGC1a acetyl inh | Wnt bcat act | MITF act | miR122 inh
N#CCC(=O)Nc1nc(-c2ccc3c(c2)OCCO3)cs1 | -56 | . | . | 9 | 55 | .
O=C(CCCCl)Nc1nc(-c2ccc3c(c2)OCCO3)cs1 | -90 | -20 | 2 | 16 | 88* | -11
COc1ccc(-c2csc(NC(=O)C3CCN(c4ncnc5sc(C)c(C)c45)CC3)n2)cc1OC | 86* | -22 | 16 | -14 | -85 | -21
C[C@@H]1CN([C@@H](C)CO)C(=O)c2ccccc2-c2ccccc2CO[C@@H]1CN(C)CC1CC1 | . | . | 4 | . | . | .
COc1cc(NC(=O)CSc2nnnn2Cc2ccccc2)cc(OC)c1 | 3 | . | . | -3 | 1 | .
COc1ccc(C)cc1NC(=O)CSc1nnnn1Cc1ccccc1 | 6 | 3 | -6 | 44* | -5 | -2

Four entries picked at random from those above:
SMILES | TRPM1 prom inh | UUG fidelity | PGC1a acetyl inh | Wnt bcat act | MITF act | miR122 inh
N#CCC(=O)Nc1nc(-c2ccc3c(c2)OCCO3)cs1 | -56 | . | . | 9 | 55 | .
COc1ccc(-c2csc(NC(=O)C3CCN(c4ncnc5sc(C)c(C)c45)CC3)n2)cc1OC | 86* | -22 | 16 | -14 | -85 | -21
COc1cc(NC(=O)CSc2nnnn2Cc2ccccc2)cc(OC)c1 | 3 | . | . | -3 | 1 | .
O=C(CCCCl)Nc1nc(-c2ccc3c(c2)OCCO3)cs1 | -90 | -20 | 2 | 16 | 88* | -11
